Sequences of proteins named here, by UniProt entry; tags and fusion partners are left off.
Guanine nucleotide-binding protein G(i) subunit alpha-3 (Rattus norvegicus), P08753, UniProt P08753, whole entry, looked up: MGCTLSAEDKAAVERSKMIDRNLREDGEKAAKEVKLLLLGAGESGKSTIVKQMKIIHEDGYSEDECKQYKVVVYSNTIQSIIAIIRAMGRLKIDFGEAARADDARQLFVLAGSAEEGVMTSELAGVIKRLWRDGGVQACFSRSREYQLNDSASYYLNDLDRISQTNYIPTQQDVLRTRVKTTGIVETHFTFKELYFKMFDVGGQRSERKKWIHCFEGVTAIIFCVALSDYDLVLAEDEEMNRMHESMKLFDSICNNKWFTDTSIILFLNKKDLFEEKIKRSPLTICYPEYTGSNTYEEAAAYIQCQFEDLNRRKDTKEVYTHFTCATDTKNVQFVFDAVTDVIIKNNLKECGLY

# Source: PubChem BioAssay (ICCB-Longwood Screening Facility, Harvard Medical School)
# HCMV UL50-53 inh: cytomegalovirus nuclear egress complex inhibition | actives 0.15% (n = 190,000) | HTRF UL50-UL53 interaction, normalized percent inhibition | inhibition, % (concentration not given with the values); in the data active = inhibition above about 27%, passing the limit was not always enough
# GIV-Gai inh: inhibitors of GIV peptide binding to Galpha-i3, primary screen, biochemical, fluorescence polarization, FITC-GIV GBA peptide, rat Galphai3 | Guanine nucleotide-binding protein G(i) subunit alpha-3 (Rattus norvegicus), P08753 | 90 min; active compounds read low; scaled: aluminum fluoride 0%, vehicle 100% | 210,000 tested, 0.42% active | AID 1224905, 2016 | percent of control (FP), % (no concentration beside the values);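 active means replicate mean at 85% of control or lower, very high polarization wells dropped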;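 further: wells of about 15 µL received 100 nL stock; the first replicate is given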
# GIV-Gai FP conf: GIV-Galpha-i3 inhibition, FP confirmation; shares compounds with GIV-Gai inh; FITC-GIV peptide binding to Galphai3, fluorescence polarization; stronger effect = lower value; fluorescence polarization, mP at 100 µM; actives 38% (n = 580); AID 1259350;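 active = inhibition score of 15 or more, meaning 100 minus mean polarization as percent of control over three replicates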
# GIV-Gai AS conf: confirmation of inhibitors of GIV binding to human Galpha-i3 | shares compounds with GIV-Gai inh | AID 1259351 | AlphaScreen counts at 100 µM | actives 39% (n = 580) | AlphaScreen Galphai3-GIV binding, purified proteins, 90 min; stronger effect = lower value;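 active = inhibition score at or above a set limit, where the score is 100 minus the three-replicate mean percent of control signal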
# Active calls of the source: *; . = no result; ! = not active in a repeat. This excerpt belongs to a sample that is enriched for hits.
canonical_smiles	HCMV UL50-53 inh	GIV-Gai inh	GIV-Gai FP conf	GIV-Gai AS conf
CCOc1cccc(=[O+]CC)c2c(C)oc(C)c12	.	68*	44*	2733*
CCOc1cccc(=O)c2c(C)oc(C)c12	-57	92	.	.
CC1=C(C#N)C(=O)N(C)C(=O)/C1=C/c1ccc(-c2ccccc2C(=O)O)o1	-28	84*	68	2072*
C=CCN1C(=O)C(C#N)=C(C)/C(=C\c2ccc(-c3cccc(C(=O)O)c3)o2)C1=O	-6	83*	79	2591*
CC1=C(C#N)C(=O)N(CCc2ccccc2)C(=O)/C1=C\c1ccc(-c2cccc(Cl)c2)o1	-20	101	.	.
CC1=C(C#N)C(=O)N(C)C(=O)/C1=C/c1ccc(-c2cccc(Cl)c2C)o1	-52	106	.	.
N#C/C(=C\c1ccc(-c2cc(Cl)ccc2Cl)o1)C(=O)Nc1ccccc1C(=O)O	-74	113	.	.
N#C/C(=C/c1ccc(-c2ccc(S(N)(=O)=O)cc2)o1)C(=O)Nc1cc(Cl)ccc1Cl	-15	75*	80	30693
Cc1ccc(NC(=O)/C(C#N)=C\c2ccc(-c3ccc(Cl)cc3)o2)c(C)c1	-51	106	.	.
CCOC(=O)c1ccccc1NC(=O)/C(C#N)=C/c1ccc(-c2ccc(Cl)cc2)o1	-19	76*	31*	11443*

# A different layout for 4 compounds above:
N#C/C(=C\c1ccc(-c2cc(Cl)ccc2Cl)o1)C(=O)Nc1ccccc1C(=O)O
- HCMV UL50-53 inh = -74
- GIV-Gai inh = 113
- GIV-Gai FP conf = .
- GIV-Gai AS conf = .

CC1=C(C#N)C(=O)N(C)C(=O)/C1=C/c1ccc(-c2ccccc2C(=O)O)o1
- HCMV UL50-53 inh = -28
- GIV-Gai inh = 84*
- GIV-Gai FP conf = 68
- GIV-Gai AS conf = 2072*

CCOc1cccc(=O)c2c(C)oc(C)c12
- HCMV UL50-53 inh = -57
- GIV-Gai inh = 92
- GIV-Gai FP conf = .
- GIV-Gai AS conf = .

CCOc1cccc(=[O+]CC)c2c(C)oc(C)c12
- HCMV UL50-53 inh = .
- GIV-Gai inh = 68*
- GIV-Gai FP conf = 44*
- GIV-Gai AS conf = 2733*

# New compounds follow:
canonical_smiles	HCMV UL50-53 inh	GIV-Gai inh	GIV-Gai FP conf	GIV-Gai AS conf
COc1cc(N2CCn3c(nc4cc(Cl)ccc43)C2)ccc1NC(=O)Nc1ccccc1	7	102	.	.
COc1cccc(NC(=O)c2c(O)c3ccccc3[nH]c2=O)c1	-19	105	.	.
N#C/C(=C\c1c(Oc2ccccc2)nc2ccccn2c1=O)C(=O)NCc1ccco1	-55	81*	76	31816
CCOc1ccc2ccccc2c1/C=C(\C#N)C(=O)NCc1ccco1	-26	100	.	.
CCC1CCCCN1C(=O)c1c[nH]c2ccc(S(=O)(=O)N(C)c3ccc(Br)cc3)cc2c1=O (configuration not stated)	.	105	.	.
O=C1C=C(O)c2cccc3cccc1c23	-115	83*	59	15097*
O=C1NC(=O)c2cccc3cccc1c23	-92	105	.	.
CCOc1ccc2c(c1)c1nnc(-c3ccccc3)c-1cn2Cc1ccccc1	-34	71*	64	45947
c1ccc(Cn2cc3c(-c4ccccc4)nnc-3c3ccccc32)cc1	-60	110	.	.
CC(=O)Nc1ccc2c3c(cc(=O)n2C)-c2ccccc2C(=O)c13	.	85*	69	46281
Cn1c(=O)cc2c3c(c(Nc4ccccc4)ccc31)C(=O)c1ccccc1-2	.	101	.	.
C/C(=N/N1CCN(c2ccccc2)CC1)c1ccccc1	-22	85*	79	33751
C/C=C(\C)CN1CCN(c2ccccc2)CC1	10	108	.	.
CCCC(=O)N(Cc1nc2nc(C)cc(C)n2n1)c1ccccc1	-3	108	.	.
Cc1cc(C)n2nc(CN(C(=O)CC(C)C)c3ccccc3)nc2n1	4	92	71	35999
NS(=O)(=O)c1ccc(CCNC(=O)c2csc3c2CCCC3)cc1	-26	106	.	.
O=c1[nH]c2c(s1)C1c3ccccc3OC3CCCC(S2)C31 (configuration not stated)	-142	72*	40*	30587
O=C1Oc2ccccc2C2c3sc(=O)[nH]c3SC(c3ccccc3)C12 (configuration not stated)	7	112	.	.
COC(=O)c1c(NC(C)=O)c2cc(NCc3sccc3C)cnc2n1CC1CCCO1 (configuration not stated)	-24	.	.	.
CC(=O)NC1=NC(=O)/C(=C\c2cccs2)N1C	-76	80*	45*	83504
NC1=NC(=O)/C(=C/c2cccs2)S1	-63	106	.	.
Cc1cccc(-c2nc3sc(N(C)CC(=O)N4CCN(c5ccccn5)CC4)nn3c2NC(C)(C)C)c1	-28	102	.	.
Cc1nc2cc(-c3ccccc3)nn2c(C)c1CCC(=O)NCCN1CCC(Cc2ccccc2)CC1	-2	100	.	.
Cn1cc(/C=C/c2nc3ccccc3c(=O)n2-c2ccc([N+](=O)[O-])cc2)c2ccccc21	-20	102	.	.
Cc1ccc(-n2c(/C=C/c3c(C)n(C)c4ccccc34)nc3ccccc3c2=O)cc1	-24	88	76	36423
Cc1ccccc1C1CC(=O)c2cnc(N3CCc4ccccc43)nc2C1 (configuration not stated)	-22	97	.	.
O=C(c1ccc(Cl)cc1)N1CCCCC(Sc2nnnn2Cc2cccs2)C1=O (configuration not stated)	14	.	.	.
CCOc1ccc(C2C3=C(CC(c4ccc(O)c(OC)c4)CC3=O)Nc3onc(C)c32)cc1 (configuration not stated)	-1	107	.	.
Cc1nc2c(c(Nc3cccc(Cl)c3)n1)CCC2	-18	99	.	.
O=C(NCc1cccc(Cl)c1)c1ccc2c(c1)N(Cc1ccccc1)CCS2	-25	104	.	.
O=C(NCc1cccc(Cl)c1)c1cc2ccccn2c1	.	76*	89	9777*
CC(=O)Nc1ccc(S(=O)(=O)N(C)CC(=O)OCc2cc(=O)oc3cc(O)ccc23)cc1	-39	.	.	.
CCN(CC)c1ccc2cc(S(=O)(=O)c3ccc(F)c(Cl)c3)c(=O)oc2c1	-1	56*	71	47488
CCN(CC)c1ccc2ccc(=O)oc2c1	-93	137	.	.
COc1ccccc1NC(=O)N1CCN(c2nc3cc(F)ccc3n3cccc23)CC1	-6	103	.	.
CC(=O)NC1C(Oc2ccc([N+](=O)[O-])cc2)OC(COC(C)=O)C(OC(C)=O)C1OC(C)=O (configuration not stated)	.	100	.	.
CC1=NN(c2cccc(Br)c2)C(=O)/C1=C\c1ccc(-c2cccc([N+](=O)[O-])c2)o1	-19	100	.	.
O=C1OC(c2ccccc2)OC(=O)C1=Cc1ccc(-c2cccc(Br)c2)o1 (configuration not stated)	.	64*	63	17821*
CCN1C(=O)c2c(C(=O)NC(C)C)ncn2CC1(C)C(=O)NCCCOC(C)C (configuration not stated)	-31	107	.	.
CC(C)CCNC(=O)c1cc(-c2ccc(Br)s2)nc2ccccc12	-7	91	86	34180
CCCCN(C)CCCNC(=O)c1cc(-c2ccc(Br)s2)nc2ccccc12	-93	106	.	.
COc1ccc(Cl)cc1Nc1nc2nonc2nc1Nc1cc(Cl)ccc1OC	-23	95	.	.
CCOC(=O)c1sc(N(Cc2nc(-c3cccc(Cl)c3)oc2C)C(C)=O)c(C#N)c1C	-11	103	.	.
COC(=O)c1c(-c2ccc(Cl)cc2)noc1N1CCN(c2ccccc2F)CC1	-2	71*!	64	42746
COC(=O)c1c(-c2ccc(Cl)cc2)noc1N1CCN(C)CC1	-27	99	.	.
COc1cc(-c2cc(C(F)(F)F)n3ncc(C(=O)Nc4ccc(O)cc4)c3n2)cc(OC)c1OC	5	101	.	.
CCOC(=O)c1nc2cc(C)c(C)cc2nc1NCc1ccc2c(c1)OCO2	-12	80*	62	44491
c1cc2c(cc1CNc1nc3nonc3nc1NCc1ccc3c(c1)OCO3)OCO2	-2	107	.	.
CCN(CC)S(=O)(=O)c1ccc(C(=O)Nc2ccc3c(c2)C(=O)c2ccccc2C3=O)cc1	14	108	.	.
Cc1ccc(/C=C2\SC(=O)NC2=O)o1	-55	.	.	.
